# Assay results: US20260384450A1, “MACROCYCLIC AMINOPYRIDINE COMPOUNDS AS EGFR INHIBITORS” (published 2026)
# By UniProt entry, the sequences of proteins in these tests, tags left out. Where a name states a change or a piece, a line headed by the entry shows the natural chain unless it says otherwise. Chains listed by the source or under a name are the forms on record and can include a tag or linker. Residues count along the entry.
# UniProt P00533, 25-1210 limits assumed: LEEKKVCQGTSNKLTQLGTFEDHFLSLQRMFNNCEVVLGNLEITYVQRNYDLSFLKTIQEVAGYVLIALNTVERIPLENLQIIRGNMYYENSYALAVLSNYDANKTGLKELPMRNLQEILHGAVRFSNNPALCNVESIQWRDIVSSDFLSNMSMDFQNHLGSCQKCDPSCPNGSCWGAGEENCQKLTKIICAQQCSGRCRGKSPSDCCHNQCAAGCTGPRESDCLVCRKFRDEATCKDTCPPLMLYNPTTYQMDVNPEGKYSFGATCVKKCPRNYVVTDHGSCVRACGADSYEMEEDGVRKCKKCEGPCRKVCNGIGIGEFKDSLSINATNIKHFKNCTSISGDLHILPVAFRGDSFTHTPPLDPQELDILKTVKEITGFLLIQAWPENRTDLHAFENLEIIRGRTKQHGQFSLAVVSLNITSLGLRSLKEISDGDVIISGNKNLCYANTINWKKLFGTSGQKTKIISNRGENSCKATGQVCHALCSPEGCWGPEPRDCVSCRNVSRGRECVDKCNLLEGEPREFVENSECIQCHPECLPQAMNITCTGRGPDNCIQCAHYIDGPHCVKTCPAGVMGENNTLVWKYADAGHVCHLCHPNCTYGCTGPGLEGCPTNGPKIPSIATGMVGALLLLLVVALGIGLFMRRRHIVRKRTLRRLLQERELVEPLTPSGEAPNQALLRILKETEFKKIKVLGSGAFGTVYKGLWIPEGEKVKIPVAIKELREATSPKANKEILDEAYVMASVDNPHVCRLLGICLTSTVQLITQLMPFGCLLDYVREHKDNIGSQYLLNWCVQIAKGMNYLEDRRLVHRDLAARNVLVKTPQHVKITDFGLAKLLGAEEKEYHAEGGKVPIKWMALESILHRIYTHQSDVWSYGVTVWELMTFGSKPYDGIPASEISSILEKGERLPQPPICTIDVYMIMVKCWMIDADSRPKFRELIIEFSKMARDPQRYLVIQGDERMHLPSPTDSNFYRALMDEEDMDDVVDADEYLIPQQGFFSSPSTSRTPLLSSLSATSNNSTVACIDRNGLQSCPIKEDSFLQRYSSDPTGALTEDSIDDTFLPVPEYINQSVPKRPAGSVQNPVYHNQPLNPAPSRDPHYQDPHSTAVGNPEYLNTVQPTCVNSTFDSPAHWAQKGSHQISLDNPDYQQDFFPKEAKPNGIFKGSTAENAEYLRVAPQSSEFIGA
# UniProt P00533, 25-1210 C797S/L858R limits assumed: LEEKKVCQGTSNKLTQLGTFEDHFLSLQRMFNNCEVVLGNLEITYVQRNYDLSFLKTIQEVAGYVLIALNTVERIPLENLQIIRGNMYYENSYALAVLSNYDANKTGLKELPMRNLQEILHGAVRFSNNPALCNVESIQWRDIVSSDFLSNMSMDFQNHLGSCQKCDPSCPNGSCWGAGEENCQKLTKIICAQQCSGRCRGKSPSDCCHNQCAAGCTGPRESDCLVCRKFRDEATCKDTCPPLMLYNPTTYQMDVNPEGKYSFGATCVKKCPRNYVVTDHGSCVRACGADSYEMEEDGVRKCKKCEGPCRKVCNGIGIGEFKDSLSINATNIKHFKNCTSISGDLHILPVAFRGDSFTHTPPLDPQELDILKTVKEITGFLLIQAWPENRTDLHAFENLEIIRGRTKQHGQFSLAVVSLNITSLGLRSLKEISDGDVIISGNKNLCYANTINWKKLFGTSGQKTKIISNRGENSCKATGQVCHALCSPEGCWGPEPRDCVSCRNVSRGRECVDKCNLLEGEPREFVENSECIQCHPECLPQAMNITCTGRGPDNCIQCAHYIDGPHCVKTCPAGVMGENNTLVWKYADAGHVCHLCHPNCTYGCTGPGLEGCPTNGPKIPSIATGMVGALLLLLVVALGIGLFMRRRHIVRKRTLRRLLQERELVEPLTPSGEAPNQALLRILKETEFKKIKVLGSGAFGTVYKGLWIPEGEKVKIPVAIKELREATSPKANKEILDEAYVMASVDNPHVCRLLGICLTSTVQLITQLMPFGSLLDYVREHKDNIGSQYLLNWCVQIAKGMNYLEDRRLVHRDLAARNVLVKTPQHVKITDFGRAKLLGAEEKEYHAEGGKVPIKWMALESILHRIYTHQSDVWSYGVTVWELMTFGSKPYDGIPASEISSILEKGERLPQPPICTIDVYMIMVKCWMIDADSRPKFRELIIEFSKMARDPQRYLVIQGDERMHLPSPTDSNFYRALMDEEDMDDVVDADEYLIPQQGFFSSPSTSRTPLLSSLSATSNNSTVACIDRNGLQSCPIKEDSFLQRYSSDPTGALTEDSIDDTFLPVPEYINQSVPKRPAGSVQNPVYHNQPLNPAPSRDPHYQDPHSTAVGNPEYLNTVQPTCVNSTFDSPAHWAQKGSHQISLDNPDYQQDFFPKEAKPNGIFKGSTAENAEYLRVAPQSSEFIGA
# UniProt P00533, 25-1210 T790M/C797S/L858R limits assumed: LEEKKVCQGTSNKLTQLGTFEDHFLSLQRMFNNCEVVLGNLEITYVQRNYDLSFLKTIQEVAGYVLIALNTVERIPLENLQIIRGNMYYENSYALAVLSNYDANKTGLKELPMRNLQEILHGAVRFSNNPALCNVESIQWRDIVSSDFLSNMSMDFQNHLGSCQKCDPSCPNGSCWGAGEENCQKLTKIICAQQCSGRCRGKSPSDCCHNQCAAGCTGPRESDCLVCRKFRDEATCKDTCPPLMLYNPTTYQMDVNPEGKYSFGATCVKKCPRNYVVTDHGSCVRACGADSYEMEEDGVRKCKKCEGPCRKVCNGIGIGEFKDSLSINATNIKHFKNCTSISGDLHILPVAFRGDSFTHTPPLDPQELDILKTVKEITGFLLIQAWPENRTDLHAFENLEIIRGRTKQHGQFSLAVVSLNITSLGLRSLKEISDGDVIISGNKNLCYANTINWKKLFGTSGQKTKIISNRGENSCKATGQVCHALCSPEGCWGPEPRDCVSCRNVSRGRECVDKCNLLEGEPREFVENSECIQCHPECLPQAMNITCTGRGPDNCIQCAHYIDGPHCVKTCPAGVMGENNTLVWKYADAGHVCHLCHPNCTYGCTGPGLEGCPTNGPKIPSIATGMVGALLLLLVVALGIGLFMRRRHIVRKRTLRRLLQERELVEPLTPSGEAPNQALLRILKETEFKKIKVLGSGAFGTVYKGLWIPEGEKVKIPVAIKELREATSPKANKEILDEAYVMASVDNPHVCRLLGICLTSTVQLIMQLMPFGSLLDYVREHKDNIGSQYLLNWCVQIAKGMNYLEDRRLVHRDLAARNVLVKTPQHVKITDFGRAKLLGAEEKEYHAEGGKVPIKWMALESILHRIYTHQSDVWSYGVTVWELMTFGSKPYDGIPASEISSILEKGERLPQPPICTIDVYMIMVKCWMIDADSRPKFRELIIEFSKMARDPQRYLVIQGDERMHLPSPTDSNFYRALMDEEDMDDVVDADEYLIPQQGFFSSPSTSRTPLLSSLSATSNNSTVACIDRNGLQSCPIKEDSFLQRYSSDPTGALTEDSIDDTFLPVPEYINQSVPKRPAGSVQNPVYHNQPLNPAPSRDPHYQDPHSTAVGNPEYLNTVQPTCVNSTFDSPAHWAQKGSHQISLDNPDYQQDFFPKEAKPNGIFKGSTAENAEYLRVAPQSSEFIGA
# UniProt P00533, with tags, fused parts or gaps DEL746-750/C797S limits assumed: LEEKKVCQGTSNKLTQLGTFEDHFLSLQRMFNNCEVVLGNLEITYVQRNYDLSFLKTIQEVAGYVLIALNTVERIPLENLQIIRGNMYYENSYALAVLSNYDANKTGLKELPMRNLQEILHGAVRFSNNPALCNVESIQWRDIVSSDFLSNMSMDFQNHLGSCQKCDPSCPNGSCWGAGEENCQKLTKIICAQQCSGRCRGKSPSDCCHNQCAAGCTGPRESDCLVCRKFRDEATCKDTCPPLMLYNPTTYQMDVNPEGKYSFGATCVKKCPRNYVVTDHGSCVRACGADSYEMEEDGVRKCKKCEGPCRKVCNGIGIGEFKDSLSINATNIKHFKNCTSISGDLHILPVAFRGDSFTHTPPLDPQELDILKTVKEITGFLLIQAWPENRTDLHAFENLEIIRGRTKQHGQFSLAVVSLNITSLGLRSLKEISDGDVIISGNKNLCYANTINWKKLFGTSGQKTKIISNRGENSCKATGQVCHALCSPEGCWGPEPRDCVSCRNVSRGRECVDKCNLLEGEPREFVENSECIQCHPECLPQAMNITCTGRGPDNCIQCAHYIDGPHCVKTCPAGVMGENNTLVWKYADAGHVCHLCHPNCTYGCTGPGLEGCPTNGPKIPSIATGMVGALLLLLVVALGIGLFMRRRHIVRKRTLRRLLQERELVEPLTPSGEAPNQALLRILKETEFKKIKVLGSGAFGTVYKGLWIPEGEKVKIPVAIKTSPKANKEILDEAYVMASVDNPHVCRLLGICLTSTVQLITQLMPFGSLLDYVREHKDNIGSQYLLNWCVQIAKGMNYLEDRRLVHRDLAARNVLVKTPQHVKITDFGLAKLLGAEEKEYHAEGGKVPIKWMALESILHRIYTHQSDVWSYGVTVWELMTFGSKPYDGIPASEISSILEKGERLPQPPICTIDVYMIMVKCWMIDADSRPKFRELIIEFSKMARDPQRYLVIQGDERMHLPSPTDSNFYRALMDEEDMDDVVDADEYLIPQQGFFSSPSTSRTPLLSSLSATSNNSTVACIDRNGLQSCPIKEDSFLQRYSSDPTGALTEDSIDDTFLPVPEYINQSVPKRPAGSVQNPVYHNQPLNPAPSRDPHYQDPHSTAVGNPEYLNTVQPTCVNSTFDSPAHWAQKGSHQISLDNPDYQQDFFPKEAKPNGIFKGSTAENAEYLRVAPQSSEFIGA
# UniProt P00533, with tags, fused parts or gaps DEL746-750/T790M/C797S limits assumed: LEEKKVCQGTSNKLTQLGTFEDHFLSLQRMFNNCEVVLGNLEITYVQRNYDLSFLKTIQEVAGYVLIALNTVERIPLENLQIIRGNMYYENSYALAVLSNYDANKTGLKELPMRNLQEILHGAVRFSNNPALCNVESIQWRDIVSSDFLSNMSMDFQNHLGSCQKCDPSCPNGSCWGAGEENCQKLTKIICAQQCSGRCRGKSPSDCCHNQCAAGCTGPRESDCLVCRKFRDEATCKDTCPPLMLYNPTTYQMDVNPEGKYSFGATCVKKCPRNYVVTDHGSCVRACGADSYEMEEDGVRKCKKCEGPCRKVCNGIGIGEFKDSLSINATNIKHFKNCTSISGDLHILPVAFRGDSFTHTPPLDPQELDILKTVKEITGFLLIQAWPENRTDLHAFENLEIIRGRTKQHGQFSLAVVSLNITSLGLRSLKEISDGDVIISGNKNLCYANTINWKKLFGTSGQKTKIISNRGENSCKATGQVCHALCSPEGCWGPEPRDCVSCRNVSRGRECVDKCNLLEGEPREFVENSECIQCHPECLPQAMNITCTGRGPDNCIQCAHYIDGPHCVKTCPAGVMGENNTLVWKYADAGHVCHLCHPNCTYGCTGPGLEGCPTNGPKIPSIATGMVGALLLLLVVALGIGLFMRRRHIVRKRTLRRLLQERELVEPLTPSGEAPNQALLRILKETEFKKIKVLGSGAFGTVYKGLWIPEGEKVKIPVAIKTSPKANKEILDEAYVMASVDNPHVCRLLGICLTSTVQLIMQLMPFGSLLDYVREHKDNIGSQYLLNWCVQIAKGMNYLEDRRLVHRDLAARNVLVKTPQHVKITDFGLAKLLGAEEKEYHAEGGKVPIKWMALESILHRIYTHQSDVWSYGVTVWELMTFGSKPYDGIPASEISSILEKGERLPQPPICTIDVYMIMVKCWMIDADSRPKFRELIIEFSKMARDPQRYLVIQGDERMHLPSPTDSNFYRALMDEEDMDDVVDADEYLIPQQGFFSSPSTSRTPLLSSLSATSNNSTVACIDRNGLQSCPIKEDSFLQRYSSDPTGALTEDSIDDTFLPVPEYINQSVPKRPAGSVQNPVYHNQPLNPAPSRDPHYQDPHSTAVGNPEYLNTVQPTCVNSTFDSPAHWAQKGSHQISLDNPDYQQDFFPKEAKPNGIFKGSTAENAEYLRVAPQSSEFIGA
# Like-named read-outs stand apart in the source and are kept apart here.
# Legend:
# EGFR D19CS (del19/C797S) = EGFR D19CS (del19/C797S) (Homo sapiens, UniProt P00533, C797S/DEL746-750); test: Biochemical EGFR kinase assay (Lance Ultra TR-FRET), double mutant del19/C797S
# [1] = target: EGFR D19TMCS (del19/T790M/C797S) (Homo sapiens, UniProt P00533, C797S/DEL746-750/T790M); test: Biochemical EGFR kinase assay (Lance Ultra TR-FRET), triple mutant del19/T790M/C797S
# [2] = target: EGFR LRTMCS (L858R/T790M/C797S) (Homo sapiens, UniProt P00533, C797S/L858R/T790M); test: Biochemical EGFR kinase assay (Lance Ultra TR-FRET), triple mutant L858R/T790M/C797S
# EGFR LRCS (L858R/C797S) = EGFR LRCS (L858R/C797S) (Homo sapiens, UniProt P00533, C797S/L858R); test: Biochemical EGFR kinase assay (Lance Ultra TR-FRET), double mutant L858R/C797S
# EGFR WT = EGFR WT (Homo sapiens, UniProt P00533); test: Biochemical EGFR kinase assay (Lance Ultra TR-FRET), wildtype
# [3] = read-out: IC50, EGFR-D19CS, 1 mM, ATP 1 mM, EGFR del19/C797S
# [4] = read-out: IC50, EGFR-D19CS, Km, ATP at Km, EGFR del19/C797S
# [5] = read-out: IC50, EGFR D19TMCS, Km, ATP at Km, EGFR del19/T790M/C797S
# [6] = read-out: IC50, EGFR LRTMCS, 1 mM, ATP 1 mM, EGFR L858R/T790M/C797S
# [7] = read-out: IC50, EGFR LRTMCS, Km, ATP at Km, EGFR L858R/T790M/C797S
# [8] = read-out: IC50, EGFR-LRCS, 1 mM, ATP 1 mM, EGFR L858R/C797S
# [9] = read-out: IC50, EGFR-LRCS, Km, ATP at Km, EGFR L858R/C797S
# [10] = read-out: IC50, EGFR WT, 1 mM, ATP 1 mM, EGFR wildtype
# [11] = read-out: IC50, EGFR WT, Km, ATP at Km, EGFR wildtype
# [12] = read-out: EGFR D19CS IC50, ATP 1 mM
# [13] = read-out: EGFR D19CS IC50, ATP Km
# [14] = read-out: EGFR D19TMCS IC50, ATP 1 mM
# [15] = read-out: EGFR D19TMCS IC50, ATP Km
# [16] = read-out: EGFR LRTMCS IC50, ATP 1 mM
# [17] = read-out: EGFR LRTMCS IC50, ATP Km
# [18] = read-out: EGFR LRCS IC50, ATP 1 mM
# [19] = read-out: EGFR LRCS IC50, ATP Km
# [20] = read-out: EGFR WT IC50, ATP 1 mM
SMILES,IC50 (EGFR D19CS (del19/C797S); [3]) [nM],IC50 (EGFR D19CS (del19/C797S); [4]) [nM],"IC50 [1, 5] [nM]","IC50 [2, 6] [nM]","IC50 [2, 7] [nM]",IC50 (EGFR LRCS (L858R/C797S); [8]) [nM],IC50 (EGFR LRCS (L858R/C797S); [9]) [nM],IC50 (EGFR WT; [10]) [nM],IC50 (EGFR WT; [11]) [nM],IC50 (EGFR D19CS (del19/C797S); [12]) [nM],IC50 (EGFR D19CS (del19/C797S); [13]) [nM],"IC50 [1, 14] [nM]","IC50 [1, 15] [nM]","IC50 [2, 16] [nM]","IC50 [2, 17] [nM]",IC50 (EGFR LRCS (L858R/C797S); [18]) [nM],IC50 (EGFR LRCS (L858R/C797S); [19]) [nM],IC50 (EGFR WT; [20]) [nM],"IC50 (EGFR WT; read-out: EGFR WT IC50, ATP Km) [nM]"
Cc1nn(C)c2c1-c1nccc(n1)Nc1cc(c(-c3ncc(CN4CC(C(C)(C)O)C4)cc3F)cn1)NCC[C@H](C)O2,< 10,< 10,< 10,< 10,< 10,10 to 100,< 10,> 1000,10 to 100,–,–,–,–,–,–,–,–,–,–
C[C@H]1CCOc2c(cnn2C)-c2nccc(n2)Nc2cc(c(-c3ccc(C(C)(C)O)cn3)cn2)N1,–,–,–,–,–,–,–,–,–,< 10,< 10,< 10,< 10,< 10,< 10,10 to 100,< 10,> 1000,< 10
C[C@H]1CCOc2c(cnn2C)-c2nccc(n2)Nc2cc(c(-c3ncc(CN4CC(OC(F)F)C4)cc3F)cn2)N1,–,–,–,–,–,–,–,–,–,10 to 100,10 to 100,< 10,< 10,< 10,< 10,100 to 1000,< 10,> 1000,< 10
Cc1nn(C)c2c1-c1nccc(n1)Nc1cc(c(-c3ccc(OC4CCN(C)CC4)cn3)cn1)N[C@@H](C)CCO2,–,–,–,–,–,–,–,–,–,< 10,< 10,< 10,< 10,< 10,< 10,< 10,< 10,100 to 1000,< 10
Cc1nn(C)c2c1-c1nccc(n1)Nc1cc(c(-c3cccc(C(C)(C)O)n3)cn1)N[C@@H](C)CCO2,10 to 100,10 to 100,< 10,10 to 100,< 10,100 to 1000,10 to 100,> 1000,100 to 1000,–,–,–,–,–,–,–,–,–,–
Cn1ncc2c1OCC(C(F)(F)F)CNc1cc(ncc1-c1ccn(C(F)F)n1)Nc1ccnc-2n1 (centres unmarked),–,–,–,–,–,–,–,–,–,> 1000,100 to 1000,10 to 100,< 10,10 to 100,< 10,> 1000,10 to 100,> 1000,> 1000
Cc1nn(C)c2c1-c1nccc(n1)Nc1cc(c(-c3ccc(OC(F)F)cn3)cn1)N[C@@H](C)CCO2,–,–,–,–,–,–,–,–,–,10 to 100,< 10,< 10,< 10,< 10,< 10,10 to 100,< 10,> 1000,10 to 100
Cn1ncc2c1OCC(C)(C)CNc1cc(ncc1-c1ccn(C(F)F)n1)Nc1ccnc-2n1,–,–,–,–,–,–,–,–,–,10 to 100,< 10,< 10,< 10,< 10,< 10,10 to 100,< 10,> 1000,10 to 100
Cn1ncc2c1OCC1(CC1)CNc1cc(ncc1-c1ccn(C(F)F)n1)Nc1ccnc-2n1,–,–,–,–,–,–,–,–,–,100 to 1000,10 to 100,< 10,< 10,< 10,< 10,100 to 1000,10 to 100,> 1000,10 to 100

# More lines, now with the values ahead:
IC50 (EGFR D19CS (del19/C797S); [3]) [nM],IC50 (EGFR D19CS (del19/C797S); [4]) [nM],"IC50 [1, 5] [nM]","IC50 [2, 6] [nM]","IC50 [2, 7] [nM]",IC50 (EGFR LRCS (L858R/C797S); [8]) [nM],IC50 (EGFR LRCS (L858R/C797S); [9]) [nM],IC50 (EGFR WT; [10]) [nM],IC50 (EGFR WT; [11]) [nM],IC50 (EGFR D19CS (del19/C797S); [12]) [nM],IC50 (EGFR D19CS (del19/C797S); [13]) [nM],"IC50 [1, 14] [nM]","IC50 [1, 15] [nM]","IC50 [2, 16] [nM]","IC50 [2, 17] [nM]",IC50 (EGFR LRCS (L858R/C797S); [18]) [nM],IC50 (EGFR LRCS (L858R/C797S); [19]) [nM],IC50 (EGFR WT; [20]) [nM],"IC50 (EGFR WT; read-out: EGFR WT IC50, ATP Km) [nM]",SMILES
< 10,< 10,< 10,< 10,< 10,10 to 100,< 10,> 1000,< 10,–,–,–,–,–,–,–,–,–,–,Cc1nn(C)c2c1-c1nccc(n1)Nc1cc(c(-c3ncc(S(C)(=O)=O)cn3)cn1)NCC[C@H](C)O2
–,–,–,–,–,–,–,–,–,> 1000,100 to 1000,< 10,< 10,10 to 100,< 10,> 1000,10 to 100,> 1000,> 1000,C[C@H]1CCOc2c(cnn2C)-c2nccc(n2)Nc2cc(c(-c3cnc(OC(F)F)cn3)cn2)N1
10 to 100,< 10,< 10,< 10,< 10,10 to 100,< 10,> 1000,10 to 100,–,–,–,–,–,–,–,–,–,–,Cc1nn(C)c2c1-c1nccc(n1)Nc1cc(c(-c3ncc(CN4CC[C@@H](O)C4)cc3F)cn1)N[C@@H](C)CCO2
–,–,–,–,–,–,–,–,–,10 to 100,< 10,< 10,< 10,< 10,< 10,100 to 1000,< 10,> 1000,10 to 100,C[C@H]1CCOc2c(cnn2C)-c2nccc(n2)Nc2cc(c(-c3cc(OC(F)F)ccn3)cn2)N1
–,–,–,–,–,–,–,–,–,< 10,< 10,< 10,< 10,< 10,< 10,< 10,< 10,10 to 100,< 10,Cc1nn(C)c2c1-c1nccc(n1)Nc1cc(c(-c3ccc(OC4CCN(C)CC4)cn3)cn1)NCC[C@@H](C)O2
–,–,–,–,–,–,–,–,–,> 1000,100 to 1000,< 10,< 10,< 10,< 10,> 1000,100 to 1000,> 1000,100 to 1000,C[C@H]1CCOc2c(cnn2CC(F)(F)F)-c2nccc(n2)Nc2cc(c(-c3ccn(C(F)F)n3)cn2)N1
–,–,–,–,–,–,–,–,–,< 10,< 10,< 10,< 10,< 10,< 10,< 10,< 10,100 to 1000,< 10,Cc1nn(C)c2c1-c1nccc(n1)Nc1cc(c(-c3ccc(OC4CCN(C)CC4)cn3)cn1)NCC[C@H](C)O2
< 10,< 10,< 10,< 10,< 10,10 to 100,< 10,> 1000,< 10,–,–,–,–,–,–,–,–,–,–,Cc1nn(C)c2c1-c1nccc(n1)Nc1cc(c(-c3ccc(S(C)(=O)=O)cn3)cn1)NCC[C@H](C)O2
–,–,–,–,–,–,–,–,–,10 to 100,< 10,< 10,< 10,< 10,< 10,100 to 1000,10 to 100,> 1000,10 to 100,C[C@H]1CCOc2c(cnn2C)-c2nccc(n2)Nc2cc(c(-c3cc(C(F)(F)F)n(C)n3)cn2)N1
< 10,< 10,< 10,10 to 100,< 10,10 to 100,< 10,> 1000,10 to 100,–,–,–,–,–,–,–,–,–,–,Cc1nn(C)c2c1-c1nccc(n1)Nc1cc(c(-c3cnc(S(C)(=O)=O)cn3)cn1)NCC[C@H](C)O2
–,–,–,–,–,–,–,–,–,10 to 100,< 10,< 10,< 10,< 10,< 10,10 to 100,< 10,> 1000,10 to 100,Cc1nn(C)c2c1-c1nccc(n1)Nc1cc(c(-c3ncc(C(C)(C)O)cc3F)cn1)NCC[C@H](C)O2
< 10,< 10,< 10,< 10,< 10,10 to 100,< 10,> 1000,10 to 100,–,–,–,–,–,–,–,–,–,–,Cc1nn(C)c2c1-c1nccc(n1)Nc1cc(c(-c3ncc(C(C)(C)O)cn3)cn1)N[C@@H](C)CCO2
